Data on ten compounds can be found in article PMC10305119, “Analogs of 6-Bromohypaphorine with Increased Agonist Potency for α7 Nicotinic Receptor as Anti-Inflammatory Analgesic Agents” (Marine Drugs, 2023).

Protein sequences, listed by entry. Tags and fused reporters are not part of them. Residues count along the entry.
UniProt P36544, 23-502 limits assumed: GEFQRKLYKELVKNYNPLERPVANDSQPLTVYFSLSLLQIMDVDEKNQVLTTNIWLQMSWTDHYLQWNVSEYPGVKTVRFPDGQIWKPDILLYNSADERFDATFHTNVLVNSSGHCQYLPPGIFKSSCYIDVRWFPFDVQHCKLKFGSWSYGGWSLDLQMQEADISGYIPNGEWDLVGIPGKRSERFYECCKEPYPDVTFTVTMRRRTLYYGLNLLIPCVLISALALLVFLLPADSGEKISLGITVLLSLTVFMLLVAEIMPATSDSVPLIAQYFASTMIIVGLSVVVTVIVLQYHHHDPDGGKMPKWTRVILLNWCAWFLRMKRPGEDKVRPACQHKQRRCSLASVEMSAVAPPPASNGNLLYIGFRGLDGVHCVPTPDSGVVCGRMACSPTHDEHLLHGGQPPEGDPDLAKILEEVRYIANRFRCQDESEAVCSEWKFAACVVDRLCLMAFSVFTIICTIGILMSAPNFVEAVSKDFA

SMILES strings stand for the structures.

As a reminder, the EC50 is the concentration needed to bring the measured effect to its halfway point.

This experiment deals with human α7 nAChR (Homo sapiens, UniProt P36544). As to the kind of experiment: Calcium fluorescence assay on α7 nAChR expressed in Neuro2a cells, in the presence of PNU120596. Format: cell-based. As to conditions: PNU120596 10 μM present.
On to `CCOC(=O)[C@H](Cc1c[nH]c2cc([N+](=O)[O-])ccc12)N(C)C`, for which the 50% effective concentration (EC50) entry is “no agonistic activity”.
Take `COC(=O)[C@H](Cc1c[nH]c2cc(O)ccc12)[N+](C)(C)C`: the EC50 amounted to 599 µM.
Turning to `C[N+](C)(C)[C@@H](Cc1c[nH]c2cc([N+](=O)[O-])ccc12)C(N)=O`, the 50% effective concentration (EC50) stood at 23 µM.
For `CNC(=O)[C@H](Cc1c[nH]c2cc([N+](=O)[O-])ccc12)[N+](C)(C)C`, the EC50 was found to be 128 µM.
Consider `COC(=O)[C@H](Cc1c[nH]c2cc(C#N)ccc12)[N+](C)(C)C`, for which the EC50 came out at 22 µM.
`CCOC(=O)[C@H](Cc1c[nH]c2cc([N+](=O)[O-])ccc12)[N+](C)(C)C`: the EC50 was 50 µM.
Take `COC(=O)[C@H](Cc1c[nH]c2cc(Br)ccc12)N(C)C`: the EC50 entry was “no agonistic activity”.
As for `CCOC(=O)[C@H](Cc1c[nH]c2cc(N)ccc12)[N+](C)(C)C`, the concentration for a half-maximal effect (EC50) is 52 µM.
With `COC(=O)[C@H](Cc1c[nH]c2cc(Br)ccc12)[N+](C)(C)C`, the concentration giving a half-maximal response (EC50) worked out at 4 µM.
`COC(=O)[C@H](Cc1c[nH]c2cc(I)ccc12)[N+](C)(C)C`: the concentration for a half-maximal effect (EC50) came out at 4.72 µM.
